From patent US8759532B2, “Pyridine and pyrimidine derivatives as phosphodiesterase 10 inhibitors” (AMGEN Inc., priority 2008, dated 2014)
Where two headings read alike, the source gives them in different places.

Chains of the proteins cited; added tags and fusions are not shown.
UniProt Q8CA95, whole entry: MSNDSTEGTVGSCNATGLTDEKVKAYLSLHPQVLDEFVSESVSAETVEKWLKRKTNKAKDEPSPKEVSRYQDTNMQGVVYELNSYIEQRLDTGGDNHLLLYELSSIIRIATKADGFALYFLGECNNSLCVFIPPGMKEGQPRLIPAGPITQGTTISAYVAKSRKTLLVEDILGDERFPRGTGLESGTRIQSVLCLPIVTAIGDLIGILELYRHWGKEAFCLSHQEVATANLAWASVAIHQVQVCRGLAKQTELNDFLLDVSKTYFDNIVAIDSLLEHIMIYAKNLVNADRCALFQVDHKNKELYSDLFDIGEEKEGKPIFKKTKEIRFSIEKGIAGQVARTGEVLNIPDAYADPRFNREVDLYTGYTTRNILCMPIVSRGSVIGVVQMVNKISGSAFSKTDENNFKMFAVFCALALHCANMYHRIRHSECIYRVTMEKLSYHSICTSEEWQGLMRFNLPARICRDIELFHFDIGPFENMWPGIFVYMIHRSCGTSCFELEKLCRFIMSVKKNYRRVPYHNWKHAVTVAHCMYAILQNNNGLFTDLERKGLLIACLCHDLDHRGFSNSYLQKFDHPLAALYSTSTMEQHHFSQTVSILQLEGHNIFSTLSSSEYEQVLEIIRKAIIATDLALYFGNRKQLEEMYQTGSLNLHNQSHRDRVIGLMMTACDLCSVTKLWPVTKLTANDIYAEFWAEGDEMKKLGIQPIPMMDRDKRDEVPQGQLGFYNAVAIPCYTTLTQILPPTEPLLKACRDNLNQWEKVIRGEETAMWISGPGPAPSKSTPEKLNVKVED

Molecular target: PDE10 (Mus musculus, UniProt Q8CA95)
Experiment: PDE10 enzyme inhibition, IMAP TR-FRET assay
Assay type: biochemical

SMILES	IC50 (IC50 class against PDE10, Table IVA) [nM]	IC50 [nM]
O=C(c1ccc(Oc2ncccc2C(=O)NCCc2ccccn2)cc1)c1nc2ccccc2[nH]1	< 25	–
CC(C)(CNC(=O)c1cccnc1Oc1ccc(C(=O)c2nc3ccccc3[nH]2)cc1)c1ccccn1	–	< 25
